Reference: ChEMBL document CHEMBL4376894 (J Med Chem, 2020)

What was measured:
[1] = Ratio of half life of compound to verapamil in mouse liver microsomes at 1 uM in presence of NADPH by LC-MS/MS analysis; format: ADME, Microsome
[2] = in vitro; details: mouse, liver microsomes

| Compound | Ratio [1] | half-life at 1 µM [2] [min] |
| --- | --- | --- |
| CCOc1ccc(C(=O)N2Cc3ccccc3C2)cc1CNC(=O)[C@@H](N)Cc1c(C)cc(O)cc1C.O=C(O)C(F)(F)F | 3.3 | 29.9 to 97 |
| CCOc1ccc(CN(C)Cc2ccccc2)cc1CNC(=O)[C@@H](N)Cc1c(C)cc(O)cc1C.O=C(O)C(F)(F)F | 1.4 | 27.6 to 39.2 |
| CCOc1ccc(CN2CCc3ccccc3C2)cc1CNC(=O)[C@@H](N)Cc1c(C)cc(O)cc1C.O=C(O)C(F)(F)F | 1.8 | 29.9 to 52.9 |
| CCOc1ccc(CNCc2ccccc2)cc1CNC(=O)[C@@H](N)Cc1c(C)cc(O)cc1C.O=C(O)C(F)(F)F | 1.9 | 27.6 to 51.5 |
| CCOc1ccc(C(=O)N2CCCC2)cc1CNC(=O)[C@@H](N)Cc1c(C)cc(O)cc1C.O=C(O)C(F)(F)F | 5.3 | 25.7 to 137 |
| CCOc1ccc(CN2Cc3ccccc3C2)cc1CNC(=O)[C@@H](N)Cc1c(C)cc(O)cc1C.O=C(O)C(F)(F)F | 2.7 | 25.7 to 70.4 |
